# Results reported in PubChem BioAssay AID677 (Vanderbilt High Throughput Screening Facility, 2007).
# By UniProt entry, the sequences of proteins in these tests, tags left out. Where a name states a change or a piece, a line headed by the entry shows the natural chain unless it says otherwise.
# UniProt P08482: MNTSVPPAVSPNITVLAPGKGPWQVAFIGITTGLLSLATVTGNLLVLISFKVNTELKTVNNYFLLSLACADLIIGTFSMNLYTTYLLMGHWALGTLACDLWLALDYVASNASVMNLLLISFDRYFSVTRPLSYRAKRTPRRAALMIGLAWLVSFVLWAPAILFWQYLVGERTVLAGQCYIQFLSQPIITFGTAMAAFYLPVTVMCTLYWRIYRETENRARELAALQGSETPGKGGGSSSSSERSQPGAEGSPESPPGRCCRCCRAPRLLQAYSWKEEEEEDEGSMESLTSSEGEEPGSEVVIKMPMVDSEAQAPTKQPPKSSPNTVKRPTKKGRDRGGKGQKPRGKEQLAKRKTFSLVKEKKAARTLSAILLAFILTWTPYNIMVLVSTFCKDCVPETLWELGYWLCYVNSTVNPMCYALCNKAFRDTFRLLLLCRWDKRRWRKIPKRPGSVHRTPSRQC
# The list shows a part of the results, in another mix than the full data. Active and inactive are the calls of the source.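 How the source made its calls: active means calcium response below the same-plate mean of wells given acetylcholine alone at its 80%-effect dose, minus 3 SD; inactive means the rest.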
# Target: Muscarinic acetylcholine receptor M1 (Rattus norvegicus) (UniProt P08482)
# Experiment: rat M1 muscarinic receptor antagonists, confirmation, CHO cells, Fluo-4 calcium, duplicate (AID 677);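 further: raw fluorescence intensity difference in arbitrary instrument units and not normalized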
# Details: ACh EC80 antagonism, at 10 µM, active compounds read low
row,SMILES,calcium response (max-min fluorescence)
1,OC(CCN1CCCCC1)(c1ccccc1)C1CCCCC1 (configuration not stated),active: 13.2
2,CNCCCN1c2ccccc2CCc2ccccc21,active: 21.4
3,CC(C)[N+]1(C)[C@@H]2CC[C@H]1CC(OC(=O)C(CO)c1ccccc1)C2 (some centres not stated),active: 16
4,CN1C2CCC1CC(OC(=O)c1c[nH]c3ccccc13)C2 (configuration not stated),active: 460
5,CCN(CC)CCOC(=O)C1(C2CCCCC2)CCCCC1,active: 16.8
6,Cc1ccc(N(CC2=NCCN2)c2cccc(O)c2)cc1,inactive: 581
7,OCCN1CCN(CCCN2c3ccccc3Sc3ccc(Cl)cc32)CC1,active: 402
